The values that follow come from patent publication US7598219B2, “Implants comprising an osteoinductive factor and a contrast agent compatible therewith” (Warsaw Orthopedic, Inc., priority 2006, dated 2009).

This assay relates to rhBMP-2 induced bone formation. In words: Rat ectopic model: subcutaneous rhBMP-2/collagen sponge implants with contrast media, graded by palpation, radiography and histology. Format: in vivo, athymic rat. The arrangement: key to RADIOGRAPHY GRADE: 0: No bone detected; 1+: Some bone; 2+: Moderate bone detected; 3+: Good bone detected; 4+: Excellent bone detected; 5+: Excellent bone detected (larger piece); key to HISTOLOGY GRADE: 0: no bone or marrow; 0.5: only trace amounts of bone; 1: bone and marrow, approximately 20% of implant area; 2: bone and marrow, approximately 40% of implant area; 3: bone and marrow, approximately 60% of implant area; 4: bone and marrow, approximately 80% of implant area; 5: bone and marrow, approximately 100% of implant area; key to PALPATION GRADE: Hard Bone; Soft; Partially Resorbed; Completely Resorbed. The settings on record: 28 days. On the procedure:
Initial in vitro and cadaver tests verified the potential of using contrast media to visualize the INFUSE® Bone Graft implant on fluoroscopic radiographic images. Applicants evaluated the rehydration of the lyophilized rhBMP-2 powder with contrast media instead of the recommended sterile water. A reconstituted solution that consisted of 97% contrast media was applied to a 0.5 cc collagen sponge to produce a graft with a rhBMP-2 concentration of 0.1 mg/cc and implanted subcutaneously on the thoracic cavity of athymic rats. At four weeks, the rats were euthanized and the implants removed. The explants were graded by manual palpation, radiography, and histology.
This aspect of the invention was designed to evaluate the ability of rhBMP-2 to induce de novo bone in the presence of various contrast media in the rat ectopic model. 200 μL of a 0.1 mg/ml rhBMP-2 solution was applied to 0.5 cc collagen sponge discs (Kensey Nash, Exton, Pa.). After a 15-minute soak time, the rhBMP-2/collagen was implanted into a subcutaneous (SC) tissue pocket above the rib cage muscle of an athymic rat. There were four implants per rat. Contrast media represented 97% of the rhBMP-2 fluid suspension applied to the collagen disc. The rhBMP-2 buffer served as a control test fluid. The three commercially available contrast media used in this study were Conray®, Optiray® (Mallinckrodt Imaging Tyco Healthcare, Hazelwood, Mo.), and Omniscan™ (GE Healthcare, Princeton, N.J.). The study protocol was evaluated and approved by the Institutional Animal Care and Use Committee of the Atlanta Veterans Affairs Medical Center.
A 4.0 mg/ml rhBMP-2 solution was made by withdrawing 1.8 ml of sterile WFI and reconstituting a 7.2 mg vial of lyophilized rhBMP-2 protein powder to create a stock solution. This solution was diluted 1:34 (v/v) with contrast media to reach the final rhBMP-2 concentration (0.1 mg/cc) used in the rat ectopic model with ACS. (Reddi A. H., 69 Proc Natl Acad Sci USA, 1601 (1972); Urist, M. R., 150 Science, 893 (1965); Wozney J. M., et al., 242 Science, 1528 (1988)). 7 μl of 4.0 mg/ml rhBMP-2 solution was mixed with 233 μL of Conray®, Omniscan™, or Optiray®. 233 μL of the rhBMP-2 buffer served to dilute the rhBMP-2 control sample.
The implants were set-up in 6-well plates clearly labeled with the implant and animal identification number. A 0.5 cc collagen disc was placed in a single well. 200 μL of 0.1 mg/cc rhBMP-2 in 97% contrast media/3% sterile water was applied to the collagen disc 15 minutes prior to implantation.
Animals were weighed, anesthetized, and surgically prepared prior to implantation. Preparation for implantation included shaving the abdomen and thorax, and scrubbing these areas with liberal amounts of ChlorohexiDerm™ scrub (DVM Pharmaceuticals, Miami, Fla.). The excess scrub was removed with gauze soaked in ChlorohexiDerm. All animals received four SC implants on the ventral thoracic region in the sterile environment of a surgical suite, and remained under isoflurane anesthesia for the duration of the procedure.
After placing the animal in dorsal recumbency, four incisions (˜5 mm in length) were made in each quadrant of the thoracic region (upper right, upper left, lower left, and lower right). The closed tip of the scissors was inserted and spread apart within the SC space. This created a space sufficient to accommodate the implant samples, which were placed with forceps in the SC tissue pocket above the rib cage muscle. Each test implant was placed in each of the four locations listed above in a clockwise rotation. After the implants were placed, the skin around the wound was closed with resorbable suture. All animals were given a SC injection of Nacel (0.8 mg/kg) prior to being placed on their sides in clean, dry cages and observed until they regained their righting reflex.
Animals on study were fed ad libitum and observed daily throughout the study. […]

Where [1] appears, read: athymic rat SC implant, 0.1 mg/mL rhBMP-2, 97% contrast media, collagen sponge, one value per animal (1394-1397).
The mark [2] stands for this setting: semi-quantitative score 0-5, rat SC implants.

Several values for one entry are separate records, joined by “and”; a condition that tells them apart may be missing. Equal entries are not always repeated.

B1: rhBMP-2 alone: Recombinant human Bone Morphogenetic Protein-2, 0.1 mg/mL, diluted with rhBMP-2 buffer, on collagen sponge; control implant (protein, UniProt P12643 283-396, looked up)
Bone morphogenetic protein 2: QAKHKQRKRLKSSCKRHPLYVDFSDVGWNDWIVAPPGYHAFYCHGECPFPLADHLNSTNHAIVQTLVNSVNSKIPKACCVPTELSAISMLYLDENEKVVLKNYQDMVVEGCGCR
For B1, under setting [1], the “HISTOLOGY GRADE” value was 3 (2×) and 4 and 5; the “PALPATION GRADE” value was “Hard Bone”; the “RADIOGRAPHY GRADE” value is 4+ (2×) and 5+ (2×). Besides, the “cross-sectional area of the implant consisting of bone and marrow” value (indicated by the mean histology score, rat SC implants) is “roughly 80%”. For the setting “out of 5, rat SC implants, Conray: three implants that were identified”, the “mean radiographic (Faxitron) score” value was 4.5. Also, under setting [2], the “mean bone induction score (histology)” value amounted to 3.8 and the “range of bone induction score (histology)” value is recorded as 3-5.
